For one compound, IC50 results are on record in ChEMBL document CHEMBL1143274, “Potent and selective inhibitors of Helicobacter pylori glutamate racemase (MurI): pyridodiazepine amines” (Bioorg Med Chem Lett, 2009).

The structures appear in SMILES notation.

As a reminder, the IC50 is the concentration that inhibits the measured activity by half.

This experiment addresses T1, Glutamate racemase (Helicobacter pylori J99, UniProt Q9ZLT0).
T1 sequence (Q9ZLT0 whole entry): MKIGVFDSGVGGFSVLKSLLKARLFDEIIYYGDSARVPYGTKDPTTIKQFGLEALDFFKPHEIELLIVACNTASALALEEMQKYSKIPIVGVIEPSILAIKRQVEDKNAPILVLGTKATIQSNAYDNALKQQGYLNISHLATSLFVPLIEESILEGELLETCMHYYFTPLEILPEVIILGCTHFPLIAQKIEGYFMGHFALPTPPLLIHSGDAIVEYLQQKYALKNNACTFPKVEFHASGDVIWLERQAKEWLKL
The experiment is described as follows: Inhibition of MurI in wild type Helicobacter pylori J99.

`OC1CN(C2=Nc3ccccc3C(c3ccccc3)=NC2c2cccs2)C1` (stereo unspecified): the IC50 worked out at 500 nM.
